Molecular target: PI3Kβ (Homo sapiens, UniProt P42338)
Test: In vitro enzyme inhibition assay (Kinase Glo), PI3Kβ
Assay type: biochemical
Details: Test (a); human recombinant enzyme; ATP 8 μM, PIP2 80 μM; Table A
Protocol: (a) In Vitro Enzyme Inhibition Assay
The inhibition of PI3Kβ, PI3Kα, PI3Kγ and PI3Kδ was evaluated in a Kinase Glo based enzyme activity assay using human recombinant enzymes. The assay measures depletion of ATP after incubation with enzyme, PIP2 and ATP plus compound. ATP at the end of the reaction is detected by addition of Kinase Glo reagent, in this the Ultra Glo™ luciferase (Promega) uses the ATP as a substrate to catalyze the mono-oxygenation of luciferin and the generation of light. A direct relationship exists between the luminescence measured with the Kinase-Glo Plus Reagent and the amount of ATP remaining in a completed kinase reaction and luminescence is inversely related to kinase activity. Twelve different compound concentrations were tested and raw data from the inhibition of PI3Kβ, PI3Kα, PI3Kγ and PI3Kδ was plotted versus inhibitor concentration.
Compounds in 100% DMSO were added to assay plates by acoustic dispensing. PI3β was added in a Tris buffer (50 mM Tris pH7.4, 0.05% CHAPS, 2.1 mM DTT, and 10 mM MgCl2) and allowed to preincubate with compound for 20 min prior to addition of substrate solution containing PIP2 and ATP. The enzyme reaction was stopped after 80 min by the addition of Kinase Glo detection solution. […] The final concentration of DMSO, ATP and PIP2 in the assay were, 1%, 8 μM, and 80 μM respectively.
IC50 values were calculated using a log curve fitting to a non-linear regression package, fitting raw data to inhibitor concentration.

The chains behind the UniProt entries cited, without tags or fusion partners. Where a name states a change or a piece, a line headed by the entry shows the natural chain unless it says otherwise.
UniProt P42338: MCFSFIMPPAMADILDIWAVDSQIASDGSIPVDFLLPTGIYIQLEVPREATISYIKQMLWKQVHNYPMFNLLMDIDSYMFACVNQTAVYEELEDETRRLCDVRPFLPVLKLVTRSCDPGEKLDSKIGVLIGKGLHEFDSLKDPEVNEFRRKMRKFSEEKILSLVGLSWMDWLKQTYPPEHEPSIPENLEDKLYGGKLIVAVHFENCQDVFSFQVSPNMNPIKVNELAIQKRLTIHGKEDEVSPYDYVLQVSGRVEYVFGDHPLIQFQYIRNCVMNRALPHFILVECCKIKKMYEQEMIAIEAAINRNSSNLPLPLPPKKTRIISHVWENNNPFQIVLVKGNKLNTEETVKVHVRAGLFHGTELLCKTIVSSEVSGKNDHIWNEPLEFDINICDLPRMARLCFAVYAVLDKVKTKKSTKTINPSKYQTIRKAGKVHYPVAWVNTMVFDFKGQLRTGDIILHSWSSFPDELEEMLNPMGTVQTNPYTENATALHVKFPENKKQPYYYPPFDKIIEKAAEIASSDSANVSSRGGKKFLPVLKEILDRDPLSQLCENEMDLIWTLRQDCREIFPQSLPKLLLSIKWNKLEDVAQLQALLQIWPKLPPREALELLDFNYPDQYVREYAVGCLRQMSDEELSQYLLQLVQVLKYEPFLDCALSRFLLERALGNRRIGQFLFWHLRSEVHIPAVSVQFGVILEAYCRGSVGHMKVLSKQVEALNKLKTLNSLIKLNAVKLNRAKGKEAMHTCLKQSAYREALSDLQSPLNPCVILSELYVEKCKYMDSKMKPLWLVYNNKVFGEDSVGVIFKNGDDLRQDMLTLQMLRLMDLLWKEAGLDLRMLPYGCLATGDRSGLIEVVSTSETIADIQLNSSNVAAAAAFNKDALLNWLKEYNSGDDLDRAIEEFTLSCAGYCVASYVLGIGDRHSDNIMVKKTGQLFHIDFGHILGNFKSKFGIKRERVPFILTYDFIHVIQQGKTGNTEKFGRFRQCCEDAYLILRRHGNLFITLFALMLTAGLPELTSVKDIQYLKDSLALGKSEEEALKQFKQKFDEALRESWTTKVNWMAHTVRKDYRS

Structure (SMILES)	IC50 [nM]
CN(C)C(=O)c1cc(C2CCCN2c2cc(F)cc(F)c2)c2oc(N3CCOCC3)cc(=O)c2c1 (stereo not shown) [Example 1.00, 8-[1-(3,5-difluorophenyl)pyrrolidin-2-yl]-N,N-dimethyl-2-morpholino-4-oxo-4H-chromene-6-carboxamide]	13
CN(CCO)C(=O)c1cc(C2CCCN2c2cc(F)cc(F)c2)c2oc(N3CCOCC3)cc(=O)c2c1 (stereo not shown) [Example 1.01, 8-(1-(3,5-difluorophenyl)pyrrolidin-2-yl)-N-(2-hydroxyethyl)-N-methyl-2-morpholino-4-oxo-4H-chromene-6-carboxamide]	16
O=C(c1cc(C2CCCN2c2cc(F)cc(F)c2)c2oc(N3CCOCC3)cc(=O)c2c1)N1CCC(O)CC1 (stereo not shown) [Example 1.02, 8-(1-(3,5-difluorophenyl)pyrrolidin-2-yl)-6-(4-hydroxypiperidine-1-carbonyl)-2-morpholino-4H-chromen-4-one]	15
CN1CCN(C(=O)c2cc([C@H]3CCCN3c3cc(F)cc(F)c3)c3oc(N4CCOCC4)cc(=O)c3c2)CC1 [Example 1.09, 8-[(2R)-(1-(3,5-difluorophenyl)pyrrolidin-2-yl)]-6-(4-methylpiperazine-1-carbonyl)-2-morpholino-4H-chromen-4-one]	7

From US8530470B2, “Chromenone derivatives” (Astrazeneca AB, priority 2011, dated 2013)
